Assay results: ChEMBL document CHEMBL1138885, “Further structural exploration of trisubstituted asymmetric pyran derivatives (2S,4R,5R)-2-benzhydryl-5-benzylamino-tetrahydropyran-4-ol and their corresponding disubstituted (3S,6S) pyran derivatives: a proposed pharmacophore model for high-affinity interaction with the dopamine, serotonin, and …” (J Med Chem, 2006)

Protein sequences, listed by entry. Tags and fused reporters are not part of them.
UniProt P31652, whole entry: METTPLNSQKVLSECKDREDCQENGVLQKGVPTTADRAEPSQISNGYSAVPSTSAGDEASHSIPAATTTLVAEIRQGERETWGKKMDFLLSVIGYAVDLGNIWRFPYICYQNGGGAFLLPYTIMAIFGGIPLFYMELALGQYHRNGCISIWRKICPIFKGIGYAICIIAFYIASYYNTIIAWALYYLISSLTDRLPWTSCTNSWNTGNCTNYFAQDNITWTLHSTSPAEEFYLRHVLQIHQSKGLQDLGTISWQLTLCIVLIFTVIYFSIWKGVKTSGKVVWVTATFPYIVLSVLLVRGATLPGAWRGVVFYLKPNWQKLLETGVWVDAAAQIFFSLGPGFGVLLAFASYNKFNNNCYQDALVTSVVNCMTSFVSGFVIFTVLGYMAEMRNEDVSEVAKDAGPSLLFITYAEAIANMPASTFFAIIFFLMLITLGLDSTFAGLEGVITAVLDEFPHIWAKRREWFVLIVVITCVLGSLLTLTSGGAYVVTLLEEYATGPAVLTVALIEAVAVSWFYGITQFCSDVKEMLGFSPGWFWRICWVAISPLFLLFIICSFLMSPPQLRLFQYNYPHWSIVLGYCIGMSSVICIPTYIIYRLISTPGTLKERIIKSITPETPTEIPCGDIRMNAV
UniProt Q9WTR4, whole entry: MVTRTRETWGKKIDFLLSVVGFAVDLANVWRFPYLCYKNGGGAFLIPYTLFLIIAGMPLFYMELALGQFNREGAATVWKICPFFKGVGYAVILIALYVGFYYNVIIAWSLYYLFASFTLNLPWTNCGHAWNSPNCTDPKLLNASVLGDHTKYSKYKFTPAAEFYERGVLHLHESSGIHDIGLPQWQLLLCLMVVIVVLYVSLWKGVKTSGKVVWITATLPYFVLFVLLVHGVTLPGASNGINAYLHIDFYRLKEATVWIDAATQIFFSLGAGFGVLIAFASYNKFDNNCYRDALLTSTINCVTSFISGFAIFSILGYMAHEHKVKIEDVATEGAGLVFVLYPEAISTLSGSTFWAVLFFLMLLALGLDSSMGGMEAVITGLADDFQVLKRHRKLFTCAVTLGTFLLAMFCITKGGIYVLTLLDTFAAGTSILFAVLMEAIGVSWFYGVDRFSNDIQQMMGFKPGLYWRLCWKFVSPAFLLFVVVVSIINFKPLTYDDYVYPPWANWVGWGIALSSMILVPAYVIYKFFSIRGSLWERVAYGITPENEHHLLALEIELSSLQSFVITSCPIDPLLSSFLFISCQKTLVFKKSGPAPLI
UniProt P23977, whole entry: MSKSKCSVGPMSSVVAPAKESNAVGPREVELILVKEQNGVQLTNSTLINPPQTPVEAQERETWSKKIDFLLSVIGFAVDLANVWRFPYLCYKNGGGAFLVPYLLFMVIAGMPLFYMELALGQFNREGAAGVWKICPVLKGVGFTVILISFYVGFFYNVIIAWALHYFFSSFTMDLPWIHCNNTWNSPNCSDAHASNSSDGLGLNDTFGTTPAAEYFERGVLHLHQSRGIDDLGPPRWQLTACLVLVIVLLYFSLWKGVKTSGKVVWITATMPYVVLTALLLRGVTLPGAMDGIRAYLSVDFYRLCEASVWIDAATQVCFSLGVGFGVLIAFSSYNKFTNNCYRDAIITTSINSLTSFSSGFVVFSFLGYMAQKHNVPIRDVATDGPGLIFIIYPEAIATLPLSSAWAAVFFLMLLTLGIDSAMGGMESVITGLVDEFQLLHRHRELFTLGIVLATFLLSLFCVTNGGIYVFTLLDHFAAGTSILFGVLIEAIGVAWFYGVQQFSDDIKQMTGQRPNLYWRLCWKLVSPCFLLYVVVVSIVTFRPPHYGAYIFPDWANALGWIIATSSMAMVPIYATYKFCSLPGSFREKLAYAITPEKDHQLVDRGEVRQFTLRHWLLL

What was measured:
Assay type in all cases: tissue-based
[1] = target: Sodium-dependent serotonin transporter (Rattus norvegicus, UniProt P31652); experiment: Inhibition of SERT-mediated [3H]5-HT uptake in rat cerebral cortex
Outline: (§1)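 [3H]DA, [3H]5-HT or [3H]NE accumulation measured; SERT and NET uptake in rat cerebral cortex. Nonspecific uptake defined with cocaine (DAT), citalopram (SERT) or desipramine (NET). Three to eight independent experiments in triplicate, mean ± SEM.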

[2] = target: Norepinephrine transporter (Rattus norvegicus, UniProt Q9WTR4); experiment: Inhibition of NET-mediated [3H]NE uptake in rat cerebral cortex
Outline: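 [3H]DA, [3H]5-HT or [3H]NE accumulation measured; SERT and NET uptake in rat cerebral cortex. Nonspecific uptake defined with cocaine (DAT), citalopram (SERT) or desipramine (NET). […] Three to eight independent experiments in triplicate, mean ± SEM.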

[3] = target: T1, Sodium-dependent dopamine transporter (Rattus norvegicus, UniProt P23977); experiment: Inhibition of [3H]WIN-35428 binding to rat striatum DAT
Outline: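 DAT radioligand binding with nonspecific binding defined by cocaine. Compounds dissolved in DMSO, diluted in 10% (v/v) DMSO, final 0.5% DMSO. At least five concentrations, each in triplicate, spaced evenly around the IC50.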

[4] = target: T1, Sodium-dependent dopamine transporter; experiment: Inhibition of DAT-mediated [3H]DA uptake in rat striatum; outline: as §1

pKi [1]	pKi [2]	pKi [3]	Compound	pKi [4]
	8.29		Oc1ccc(CN[C@H]2CC[C@@H](C(c3ccccc3)c3ccccc3)OC2)cc1	
		6.74	COc1ccc(CN[C@@H]2CO[C@H](C(c3ccccc3)c3ccccc3)C[C@H]2O)cc1	
6.63		6.63	Oc1ccc(CN[C@@H]2CO[C@H](C(c3ccccc3)c3ccccc3)C[C@H]2O)cc1	6.76
5.60		6.90	Oc1ccc(CN[C@H]2CO[C@@H](C(c3ccccc3)c3ccccc3)C[C@@H]2O)cc1	7.04

More lines, now with the values behind:

Compound	pKi [1]	pKi [2]	pKi [3]	pKi [4]
O=[N+]([O-])c1ccc(CN[C@@H]2CC[C@H](C(c3ccccc3)c3ccccc3)OC2)cc1	7.19	7.09		
O[C@@H]1C[C@@H](C(c2ccccc2)c2ccccc2)OC[C@H]1NCc1ccc2[nH]ccc2c1	7.82			
Oc1ccc(CN[C@@H]2CC[C@H](C(c3ccccc3)c3ccccc3)OC2)cc1		7.39		
Nc1ccc(CN[C@@H]2CC[C@H](C(c3ccccc3)c3ccccc3)OC2)cc1	7.34	7.59	6.93	7.36
O=[N+]([O-])c1ccc(CN[C@H]2CC[C@@H](C(c3ccccc3)c3ccccc3)OC2)cc1	7.70	7.27		
Nc1ccc(CN[C@H]2CC[C@@H](C(c3ccccc3)c3ccccc3)OC2)cc1	7.79	7.90	6.85	7.20
O[C@H]1C[C@H](C(c2ccccc2)c2ccccc2)OC[C@@H]1NCc1ccc2[nH]ccc2c1	6.65			

pKi: −log10 of the molar value.
